Target: Dual 3',5'-cyclic-AMP and -GMP phosphodiesterase 11A (Homo sapiens, UniProt Q9HCR9)
Experiment: Inhibition of human PDE11A4

By UniProt entry, the sequences of proteins in these tests, tags left out. Where a name states a change or a piece, a line headed by the entry shows the natural chain unless it says otherwise.
UniProt Q9HCR9: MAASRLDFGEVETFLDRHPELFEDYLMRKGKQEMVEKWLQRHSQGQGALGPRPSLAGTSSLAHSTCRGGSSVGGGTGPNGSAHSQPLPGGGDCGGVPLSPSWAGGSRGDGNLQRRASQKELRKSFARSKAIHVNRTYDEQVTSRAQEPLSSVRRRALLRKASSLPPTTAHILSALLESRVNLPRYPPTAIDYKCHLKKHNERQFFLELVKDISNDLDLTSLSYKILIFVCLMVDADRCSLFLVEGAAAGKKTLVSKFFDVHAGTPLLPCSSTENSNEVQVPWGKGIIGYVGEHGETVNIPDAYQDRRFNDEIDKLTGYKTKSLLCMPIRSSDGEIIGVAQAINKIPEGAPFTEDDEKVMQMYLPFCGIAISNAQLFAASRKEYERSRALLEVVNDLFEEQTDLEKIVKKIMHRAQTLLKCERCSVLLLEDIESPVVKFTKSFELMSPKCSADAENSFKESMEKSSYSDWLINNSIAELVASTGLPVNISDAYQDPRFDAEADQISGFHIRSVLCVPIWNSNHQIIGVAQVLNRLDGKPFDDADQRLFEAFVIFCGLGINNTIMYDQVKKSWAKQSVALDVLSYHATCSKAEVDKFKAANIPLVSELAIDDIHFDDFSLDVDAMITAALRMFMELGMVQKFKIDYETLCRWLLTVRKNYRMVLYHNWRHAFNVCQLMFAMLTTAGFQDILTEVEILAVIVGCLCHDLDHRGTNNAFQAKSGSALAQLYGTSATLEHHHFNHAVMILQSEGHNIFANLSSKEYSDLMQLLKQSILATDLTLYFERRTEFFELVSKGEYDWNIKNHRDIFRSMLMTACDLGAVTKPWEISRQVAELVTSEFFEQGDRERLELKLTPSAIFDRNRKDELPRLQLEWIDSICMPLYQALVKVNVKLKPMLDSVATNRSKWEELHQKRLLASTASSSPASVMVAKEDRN

Compound `O=c1c(OCCN2CCn3c2nc2ccccc23)cn(CC2CC2)nc1-c1ccnn1-c1ccccc1` has an IC50 of over 10 µM.

Source: ChEMBL document CHEMBL3813640, “Design and synthesis of potent and selective pyridazin-4(1H)-one-based PDE10A inhibitors interacting with Tyr683 in the PDE10A selectivity pocket” (Bioorg Med Chem, 2016)
